Conditions: MCE model, 300 μM, 0.5 μl/hr subcutaneously

In the case of “BODIPY-FL-glyburide [BODIPY-glibenclamide]”, the “Fluorescent labeling in uninvolved hemisphere and pancreas” value is reported as “minimal labeling” and the “Fluorescent labeling in unperfused core of the stroke” value is reported as “none”.
